From BindingDB's records for doi:10.1016/0014-5793(93)80368-5 (University of Heidelberg Zmbh, 1993)

Protein sequences, listed by entry. Tags and fused reporters are not part of them.
UniProt P35365, whole entry: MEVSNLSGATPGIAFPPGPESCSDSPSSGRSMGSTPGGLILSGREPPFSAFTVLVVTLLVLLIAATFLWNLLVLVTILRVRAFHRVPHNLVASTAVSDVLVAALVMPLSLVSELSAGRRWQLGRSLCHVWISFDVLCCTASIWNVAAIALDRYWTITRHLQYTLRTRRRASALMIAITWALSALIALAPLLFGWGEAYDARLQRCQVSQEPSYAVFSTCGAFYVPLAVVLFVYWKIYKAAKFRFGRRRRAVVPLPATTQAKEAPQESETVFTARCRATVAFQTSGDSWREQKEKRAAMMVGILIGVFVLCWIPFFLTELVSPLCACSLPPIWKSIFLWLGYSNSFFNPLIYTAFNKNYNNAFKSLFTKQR

Target: 5-hydroxytryptamine receptor 5B (Rattus norvegicus, UniProt P35365)

Structure (SMILES)	Ki [nM]
CSc1ccc2c(c1)C(N1CCN(C)CC1)Cc1ccccc1S2 (configuration not stated) [methanesulfonic acid;1-methyl-4-(3-methylsulfanyl-5,6-dihydrobenzo[b][1]benzothiepin-5-yl)piperazine]	44.2
NCCc1c[nH]c2ccc(O)cc12 [[3H]-5-HT]	7.8
